The assay has as its target human IRAK4 kinase domain (aa 154-460) (Homo sapiens, UniProt Q9NWZ3). The assay can be described thus: IRAK4 Enzymatic DELFIA Assay. The note with it: read-out: IRAK4 IC50 nM; 0.6 mM ATP (KM); 114 pM IRAK4 kinase domain; 200 nM substrate; 5% DMSO; tested form: trifluoroacetate. How it is done:
IRAK4 Enzymatic DELFIA Assay.
This is an in vitro assay to measure IRAK4 enzymatic activity utilizing the DELFIA (Dissociation-Enhanced Lanthanide Fluorescent Immunoassay, Perkin-Elmer) platform, with the human IRAK4 kinase domain (aa 154-460) construct to characterize IRAK4 inhibitor and control compounds at 0.6 mM ATP (KM). The final amount of enzyme in the assay is 114 pM IRAK4 kinase domain, final concentration of substrate is 200 nM, and final concentration of DMSO is 5%.
The test compound was solubilized in DMSO to a stock concentration of 30 mM. The dose response plates were prepared with a 2 mM primary compound concentration, and then diluted in DMSO in a four-fold series for a total of 10 data points. Compounds were prepared as a 20-fold multiple of the final in-assay concentration […]
100 μL of the reaction mixture was transferred to a streptavidin coated detection plate (EvenCoat Streptavidin Coated Plates, 96-Well, R&D Systems) and incubated for 30 minutes at room temperature. […] Then 100 μL per well of DELFIA Enhancement Solution were added to the plate and then read on an EnVision Model 2103 using a 340 nm excitation wavelength and a 665 nm emission detection.

Protein sequences, listed by entry. Tags and fused reporters are not part of them. Residues count along the entry.
UniProt Q9NWZ3, 154-460 limits assumed: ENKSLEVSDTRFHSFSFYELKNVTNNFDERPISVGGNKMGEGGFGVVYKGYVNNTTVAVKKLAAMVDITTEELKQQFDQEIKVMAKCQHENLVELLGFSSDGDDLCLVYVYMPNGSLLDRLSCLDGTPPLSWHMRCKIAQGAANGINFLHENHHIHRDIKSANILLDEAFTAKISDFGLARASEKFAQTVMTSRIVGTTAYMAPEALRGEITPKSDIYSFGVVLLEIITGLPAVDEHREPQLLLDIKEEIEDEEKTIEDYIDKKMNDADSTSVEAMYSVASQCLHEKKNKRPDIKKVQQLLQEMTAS

SMILES strings stand for the structures.

On to `CC(C)Oc1cc2c(OC3CCN(C(=O)[C@@H](C)N)CC3)nccc2cc1C(N)=O`, for which the IC50 (commonly the midpoint of a concentration-inhibition curve) came to 755 nM.
